{"source": "patent US20190008870A1", "about": "(published 2019)", "test_system": "HMG CoA reductase", "assay": "HMG CoA reductase expression in HepG2 cells (Western blotting)", "type": "cell-based", "conditions": "24 hours, CTL 100"}
{"smiles": "CCC(C)(C)C(=O)O[C@H]1C[C@@H](C)C=C2C=C[C@H](C)[C@H](CC[C@@H]3C[C@@H](O)CC(=O)O3)[C@H]21", "note": "[Simva, Simvastatin, reference compound]", "values": [{"measurement": "HMGR (%)", "setting": "10^−6 M", "value": 225, "unit": "%"}, {"measurement": "HMGR (%)", "setting": "10^−7 M", "value": 220, "unit": "%"}]}
